This assay has as its target human mGluR5 (Homo sapiens, UniProt P41594). As to the kind of experiment: Cell-based functional Ca2+ mobilization assay (FDSS), potentiation of glutamate EC20 response. As to conditions: H10H cell-line; for Emax (%): maximum % effect as percent of response to maximally effective glutamate, glutamate EC20 present; for pEC50: potentiation in presence of glutamate EC20. In general terms: A change in cytosolic calcium serves as a functional read-out for many receptors and channels.

Chains of the proteins cited; added tags and fusions are not shown. Residues count along the entry.
UniProt P41594, 21-1180 isoform 2 limits assumed: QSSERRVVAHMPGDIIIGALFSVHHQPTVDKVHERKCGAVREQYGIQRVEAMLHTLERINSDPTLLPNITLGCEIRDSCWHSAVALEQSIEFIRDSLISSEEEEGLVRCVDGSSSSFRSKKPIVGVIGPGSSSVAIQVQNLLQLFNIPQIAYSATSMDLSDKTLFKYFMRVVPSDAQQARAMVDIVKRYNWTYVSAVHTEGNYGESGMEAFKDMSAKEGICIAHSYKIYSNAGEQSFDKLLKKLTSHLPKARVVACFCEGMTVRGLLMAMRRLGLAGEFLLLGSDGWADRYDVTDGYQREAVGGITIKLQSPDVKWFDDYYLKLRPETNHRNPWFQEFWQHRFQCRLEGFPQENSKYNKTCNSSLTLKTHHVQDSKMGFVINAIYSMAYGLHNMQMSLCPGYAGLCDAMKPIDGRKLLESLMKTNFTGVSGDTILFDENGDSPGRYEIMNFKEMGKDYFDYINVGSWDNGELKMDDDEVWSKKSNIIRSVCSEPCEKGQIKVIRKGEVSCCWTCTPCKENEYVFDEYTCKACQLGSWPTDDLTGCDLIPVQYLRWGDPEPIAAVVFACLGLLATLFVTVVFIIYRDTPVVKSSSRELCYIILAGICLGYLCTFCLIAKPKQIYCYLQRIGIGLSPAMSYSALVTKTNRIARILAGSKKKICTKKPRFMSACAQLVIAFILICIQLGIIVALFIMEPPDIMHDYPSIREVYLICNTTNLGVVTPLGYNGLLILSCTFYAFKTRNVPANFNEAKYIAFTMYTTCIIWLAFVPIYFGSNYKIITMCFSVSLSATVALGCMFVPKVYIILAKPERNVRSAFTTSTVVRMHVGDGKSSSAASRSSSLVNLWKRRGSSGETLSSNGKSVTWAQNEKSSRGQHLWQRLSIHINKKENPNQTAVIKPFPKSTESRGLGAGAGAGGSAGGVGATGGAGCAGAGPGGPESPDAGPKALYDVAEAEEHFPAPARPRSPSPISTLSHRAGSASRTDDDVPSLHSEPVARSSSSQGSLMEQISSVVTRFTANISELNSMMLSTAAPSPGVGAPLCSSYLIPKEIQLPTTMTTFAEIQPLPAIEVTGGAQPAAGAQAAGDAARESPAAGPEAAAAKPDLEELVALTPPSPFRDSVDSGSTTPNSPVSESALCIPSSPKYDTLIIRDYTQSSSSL

On to `C[C@H]1CN(CC2CCC2)C(=O)c2cc(COc3ccccc3)nn21`, for which the “Emax (%)” value is reported as 75% and the pEC50 (as a rule, the EC50 on a negative log10 scale, so that one unit is a factor of ten) came out at 7.02.

In the case of `CC1CN(CC2(C)COC2)C(=O)c2cc(COc3ccccc3)nn21` (single isomer, unassigned), the “Emax (%)” value came out at 76% and the pEC50 stood at 5.46.

In the case of `O=C1c2cc(COc3ccccc3)nn2CCN1C1CCCCCC1`, the “Emax (%)” value is listed as 60% and the pEC50 is 7.17.

On to `C[C@H]1CN(CC2CC2(F)F)C(=O)c2cc(COc3ccccc3)nn21` (some centres unmarked), for which the “Emax (%)” value is 64% and the negative logarithm of the EC50 (pEC50) came out at 6.54.

The values above are taken from patent US20130345204A1, “SUBSTITUTED BICYCLIC CYCLOALKYL PYRAZOLE LACTAM ANALOGS AS ALLOSTERIC MODULATORS OF MGLUR5 RECEPTORS” (Vanderbilt University, priority 2012, published 2013).
